Source: patent US20120135923A1, “Use of Melanocortins to Treat Dyslipidemia” (IPSEN PHARMA, S.A.S., priority 2009, published 2012)

Sequences of proteins named here, by UniProt entry; tags and fusion partners are left off. A change or cut given only in a name is not applied to a line headed by its entry.
UniProt P32245, whole entry: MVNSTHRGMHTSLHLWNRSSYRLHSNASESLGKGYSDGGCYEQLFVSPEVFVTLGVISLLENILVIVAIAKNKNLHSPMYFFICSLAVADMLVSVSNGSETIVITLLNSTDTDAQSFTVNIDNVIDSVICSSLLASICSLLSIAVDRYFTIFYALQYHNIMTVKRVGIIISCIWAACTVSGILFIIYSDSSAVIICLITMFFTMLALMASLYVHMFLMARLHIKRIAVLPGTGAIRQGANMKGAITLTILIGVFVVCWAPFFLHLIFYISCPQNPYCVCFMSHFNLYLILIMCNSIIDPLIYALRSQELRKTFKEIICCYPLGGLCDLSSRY
UniProt P33032: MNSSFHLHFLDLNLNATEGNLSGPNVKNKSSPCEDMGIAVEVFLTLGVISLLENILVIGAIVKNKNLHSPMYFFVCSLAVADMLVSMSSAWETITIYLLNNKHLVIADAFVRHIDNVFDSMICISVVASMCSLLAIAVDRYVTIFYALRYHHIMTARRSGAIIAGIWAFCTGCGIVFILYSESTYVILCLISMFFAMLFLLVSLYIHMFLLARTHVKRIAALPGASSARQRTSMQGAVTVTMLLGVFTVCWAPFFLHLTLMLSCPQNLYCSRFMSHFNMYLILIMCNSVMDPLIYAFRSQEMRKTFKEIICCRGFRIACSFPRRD
UniProt P41968: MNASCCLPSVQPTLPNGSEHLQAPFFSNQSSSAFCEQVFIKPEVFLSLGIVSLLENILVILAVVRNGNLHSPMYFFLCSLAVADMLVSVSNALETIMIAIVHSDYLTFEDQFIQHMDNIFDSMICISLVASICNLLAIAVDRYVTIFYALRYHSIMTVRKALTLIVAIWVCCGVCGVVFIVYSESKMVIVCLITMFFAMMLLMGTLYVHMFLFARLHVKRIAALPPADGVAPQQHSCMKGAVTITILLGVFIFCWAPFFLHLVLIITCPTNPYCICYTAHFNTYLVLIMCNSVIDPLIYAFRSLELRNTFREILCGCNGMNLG
UniProt Q01726: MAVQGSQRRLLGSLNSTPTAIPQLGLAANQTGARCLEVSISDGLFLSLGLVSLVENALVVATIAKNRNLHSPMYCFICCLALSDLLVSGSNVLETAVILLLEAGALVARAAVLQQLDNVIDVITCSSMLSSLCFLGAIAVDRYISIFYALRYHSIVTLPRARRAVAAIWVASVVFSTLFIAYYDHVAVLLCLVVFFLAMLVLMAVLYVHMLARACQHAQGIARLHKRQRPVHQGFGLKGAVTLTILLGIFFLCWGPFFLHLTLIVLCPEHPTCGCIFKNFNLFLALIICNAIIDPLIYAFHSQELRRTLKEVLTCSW

How the values were obtained:
hMC4-R (human) = hMC4-R (human) (UniProt P32245); assay: competition with [125I]-NDP-α-MSH, CHO-K1 membranes
[1] = biological target: human melanocortin receptor subtype 5 (hMC5-R) (human) (UniProt P33032); assay: [125I]-NDP-α-MSH competition, membranes
[2] = biological target: human melanocortin receptor subtype 3 (hMC3-R) (human) (UniProt P41968); assay: [125I]-NDP-α-MSH competition, membranes
[3] = biological target: human melanocortin receptor subtype 1 (hMC1-R) (human) (UniProt Q01726); assay: [125I]-NDP-α-MSH competition, membranes
[4] = biological target: human melanocortin receptor subtype 4 (hMC4-R) (human) (UniProt P32245); assay: [125I]-NDP-α-MSH competition, membranes

Row | Ki (hMC4-R (human)) [nM] | Ki [1] [nM] | Ki [2] [nM] | Ki [3] [nM] | Ki [4] [nM] | Substance
1 | 10.4 | – | – | – | – | Ac-Nle-c(Cys-3-Pal-D-Phe-Arg-Trp-Gaba-Cys)-NH2 (peptide)
2 | – | 7020 | 7590 | 230 | 126 | c[Hydantoin(C(O)-(Cys-D-Ala))-His-D-Phe-Arg-Trp-Cys]-NH2 (peptide)
